Source: patent US20200121814A1 (GENERAL HOSPITAL, published 2020)

Sequences of proteins named here, by UniProt entry; tags and fusion partners are left off. Residues count along the entry.
UniProt P21860, 20-643: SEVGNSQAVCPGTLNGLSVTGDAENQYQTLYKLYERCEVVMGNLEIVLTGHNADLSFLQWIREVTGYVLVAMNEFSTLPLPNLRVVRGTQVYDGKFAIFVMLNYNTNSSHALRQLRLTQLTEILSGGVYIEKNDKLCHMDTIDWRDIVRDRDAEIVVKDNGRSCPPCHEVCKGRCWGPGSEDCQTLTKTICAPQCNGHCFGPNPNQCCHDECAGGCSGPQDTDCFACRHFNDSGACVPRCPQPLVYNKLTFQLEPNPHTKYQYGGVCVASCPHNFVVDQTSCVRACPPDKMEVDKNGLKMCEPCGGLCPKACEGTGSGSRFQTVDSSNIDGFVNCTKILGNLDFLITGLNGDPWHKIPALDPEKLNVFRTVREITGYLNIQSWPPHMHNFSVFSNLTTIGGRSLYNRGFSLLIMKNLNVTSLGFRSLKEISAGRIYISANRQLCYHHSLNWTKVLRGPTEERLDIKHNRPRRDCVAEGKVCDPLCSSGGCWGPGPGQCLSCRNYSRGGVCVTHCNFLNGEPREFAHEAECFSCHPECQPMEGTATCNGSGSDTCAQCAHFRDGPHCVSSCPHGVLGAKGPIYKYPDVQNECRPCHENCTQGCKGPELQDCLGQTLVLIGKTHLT

Biological target: T1, HER3 extracellular domain (ECD) (R&D Systems) (human, UniProt P21860 20-643)
T1 construct: extracellular domain; Adsorbed to Maxisorp plates in the ELISAs; also called HER3 ECD; ERBB3
Test: peptide ELISA on immobilized HER3 ECD, increasing peptide concentrations, sigmoidal dose response fit; given as 'affinity'
Method: For comparison of phage clones against BSA and peptide specificity against other receptor tyrosine kinases, a one-way ANOVA with a Dunnett test to correct for multiple comparisons was performed. A sigmoidal dose response curve was fit to the peptide affinity data using Graphpad Prism 6.0. For peptide cell binding a two-way ANOVA with a Sidak's multiple comparisons test was performed. A linear regression was fit to HER3 TBR versus western blot data, with correlation significance calculated by a Pearson correlation.
After determination of a consensus peptide binding sequence, the peptide sequence was covalently linked to a biotin-conjugated N-terminal tri-glycine linker using standard Fmoc chemistry. The purity and molecular weight were determined by high performance liquid chromatography and mass spectrometry. In order to confirm HER3 affinity, the peptide was analyzed for binding to HER3 ECD immobilized to Nunc Maxisorp 96 well microtiter plates. […] Wells were washed with 0.1% TBST, and bound peptide detected by addition of HRP-conjugated streptavidin (Abeam, Cambridge, UK), washing and ABTS substrate incubation for 10 minutes. Absorbance at 405 nm was read by spectrophotometer. […] Plates were washed and bound peptide once again detected by addition of streptavidin-HRP and ABTS and absorbance read at 405 nm.

B1: HER3P1 (biotin-conjugated, N-terminal tri-glycine linker) (peptide)
peptide: GGGCLPTKFRSC
modifications: N-terminal biotin on the tri-glycine linker; cysteine-constrained sequence (disulfide bond between the cysteine groups as drawn in the formulas)
notes: The formulas of the description print a beta A before G-G-G; also called HER3 peptide; the peptide
Kd: 270 nM
